According to patent US20230295312A1 (AKESO BIOPHARMA, published 2023):

T1: human IL4RA-hFc (human, UniProt P24394 26-232)
T1 construct: mature; Coating antigen in ELISA
T1 sequence (looked up): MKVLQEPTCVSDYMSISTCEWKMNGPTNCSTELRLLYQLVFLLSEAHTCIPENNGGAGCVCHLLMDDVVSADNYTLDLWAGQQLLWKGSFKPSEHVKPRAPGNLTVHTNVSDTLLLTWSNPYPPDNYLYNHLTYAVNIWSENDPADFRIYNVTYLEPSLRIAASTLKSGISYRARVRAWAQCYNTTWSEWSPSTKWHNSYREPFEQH


Key:
[1] = molecular target: T2, human IL4RA-mFc (human, UniProt P24394 26-232); assay: indirect ELISA
T2 construct: mature; Immunogen and coating antigen
Procedure: (§1) Procedures: The ELISA plates were coated with human IL4RA-hFc or human IL4RA-mFc and were incubated, and target antibodies were added after blocking. […] The plates were incubated and washed before TMB (Neogen, 308177) was added for chromogenic reaction. At the end of the reaction, the absorbance at 450 nm was measured by a plate reader. The data were analyzed by SoftMax Pro 6.2.1.

[2] = molecular target: T1, human IL4RA-hFc; assay: competitive ELISA; blocks IL4-N-His (0.15 ug/ml) binding to coated IL4RA-hFc (2 ug/mL)
Procedure: (§2) The ELISA plates were coated with human IL4RA-hFc and blocked before the antibodies were added. […] After the plates were washed, mouse anti-His, HRP (purchased from CoWin Biosciences, Cat No. CW0285M) was added for incubation. The plates were subjected to another wash. Chromogenic reaction was started by adding TMB (Neogen, 308177) and was then terminated. At the end of the reaction, the OD value at 450 nm wavelength was measured by a plate reader, and was analyzed and processed by SoftMax Pro 6.2.1.
(§3) By 4-parameter logistic regression of absorbance vs. antibody concentration, the blocking EC₅₀ of the antibodies was calculated.

[3] = molecular target: T2, human IL4RA-mFc; assay: indirect ELISA; remark: listed apart in the source
Procedure: as §1

[4] = molecular target: T2, human IL4RA-mFc; assay: indirect ELISA; no Ab (0, blank)
Procedure: as §1

[5] = molecular target: T1, human IL4RA-hFc; assay: competitive ELISA; blocks IL4-N-His binding to coated IL4RA-hFc
Procedure: as §2, with “CW0285A)” for “CW0285M)”
as §3

[6] = molecular target: T1, human IL4RA-hFc; assay: as above; remark: listed apart in the source
Procedure: as §2, with “CW0285A)” for “CW0285M)”
as §3

[7] = molecular target: T1, human IL4RA-hFc; assay: competitive ELISA; blocks IL4-N-His (0.15 ug/ml) binding to coated IL4RA-hFc (2 ug/mL); remark: listed apart in the source
Procedure: as §2, with “CW0285A)” for “CW0285M)”
as §3

[8] = molecular target: T2, human IL4RA-mFc; assay: indirect ELISA, antigen coated 1 ug/mL
Procedure: as §1

[9] = molecular target: T2, human IL4RA-mFc; assay: indirect ELISA, antigen coated 1 ug/mL; remark: listed apart in the source
Procedure: as §1

[10] = molecular target: T1, human IL4RA-hFc; assay: competitive ELISA vs IL4-N-His; Ab 3 ug/mL
Procedure: as §2, with “CW0285A)” for “CW0285M)”

[11] = molecular target: T2, human IL4RA-mFc; assay: indirect ELISA; Ab 0.333 ug/mL diluted 1:729
Procedure: as §1

[12] = molecular target: T1, human IL4RA-hFc; assay: competitive ELISA; blocks IL4-N-His binding to coated IL4RA-hFc; remark: listed apart in the source

Binder	EC50 [1] [nM]	EC50 [2] [nM]	EC50 [3] [nM]	EC50 [6] [nM]	also measured
18H7 H2L2 (antibody, IgG4, V domains shown) VH: EVQLVESGGGLVQPGGSLRLSCAASGFTFSSSYMSWVRQAPGKRLELVAAINSNGGKTYYADSVKGRFTISRDNSKNTLYLQMSSLRAEDTAVYYCTRQRGNYVGAMDYWGQGTSVTVSS VL: DIQMTQSPSSLSASVGDRVTITCQASQDVSTAVVWYQQKPGKSPKLLIYSASYLYTGVPSRFSGSGSGTDFTFTISSLQPEDIATYYCHQYYGSPPTFGGGTKLEIKR	0.087	2.3			
18H7 H2L3 (antibody, IgG4, V domains shown) VH: EVQLVESGGGLVQPGGSLRLSCAASGFTFSSSYMSWVRQAPGKRLELVAAINSNGGKTYYADSVKGRFTISRDNSKNTLYLQMSSLRAEDTAVYYCTRQRGNYVGAMDYWGQGTSVTVSS VL: DIQMTQSPSSLSASVGDRVTITCQASQDVSTALAWYQQKPGKAPKLLIYSASNLETGVPSRFSGSGSGTDFTFTISSLQPEDIATYYCHQYYGSPPTFGGGTKLEIKR	0.094	2.51			
18H7 H1L1 (antibody, IgG4, V domains shown) VH: DVQLVESGGGLVQLGGSLRLSCAASGFTFSSSYMSWVRQTPEKRLELVAAINSNGGKTYYADSVKGRFTISRDNSKNTLYLQMSSLRAEDTAVYYCTRQRGNYVGAMDYWGQGTSVTVSS VL: DIQMTQSPSSLSTSVGDRVTITCKASQDVSTAVVWYQQKPGKSPKLLIYSASYRYTGVPSRFSGSGSGTDFTFTISSVQPEDIATYYCHQYYGSPPTFGGGTKLEIKR	0.087	1.66			
13E5 H4L2 (antibody, IgG4, V domains shown) VH: QVQLVQSGAEVVKPGASVKVSCKTSGYTFTEYTIHWVRQAPGQSLEWIGGINPNNGGTVYNQKFQGKVTLTVDKSTSTAYMELSSLRSEDTAVYYCARVRRGMDYWGQGTSVTVSS VL: DIQMTQSPSSLSASVGDRVTITCRASQDVTTAVAWYQQKPGKAPKLLIYSASSRYTGVPSRFSGSGSGTDFTLTISSVQPEDLATYYCQQHYSAPWTFGGGTNLEIKR			0.079		OD450 [4]: 0.063; EC50 [5]: 1.15 nM
13E5 H3L3 (antibody, IgG4, V domains shown) VH: QVQLVQSGAEVVKPGASVKVSCKASGYTFTEYTIHWVRQAPGQGLEWIGGINPNNGGTNYAQKFQGRVTITVDKSTSTAYMELSSLRSEDTAVYYCARVRRGMDYWGQGTSVTVSS VL: DIQMTQSPSSLSASVGDRVTITCRASQDVTTALAWYQQKPGKAPKLLIYSASSLYTGVPSRFSGSGSGTDFTLTISSLQPEDFATYYCQQHYSAPWTFGGGTNLEIKR			0.042	0.636	OD450 [4]: 0.056
13E5 H1L1 (antibody, IgG4, V domains shown) VH: QVQLQQSGAEVVKPGASVKISCKTSGYTFTEYTIHWVKQAHGQSLEWIGGINPNNGGTVYNQKFQGKATLTVDKSTSTAYMELRSLTSEDTAVYYCARVRRGMDYWGQGTSVTVSS VL: DIQMTQSPKSLSTSVGDRVTITCRASQDVTTAVAWYQQKPGKSPKLLIYSASYRYTGVPSRFSGSGSGTDFTFTISSVQPEDLATYYCQQHYSAPWTFGGGTNLEIKR			0.035	0.875	
13E5 H4L4 (antibody, IgG4, V domains shown) VH: QVQLVQSGAEVVKPGASVKVSCKTSGYTFTEYTIHWVRQAPGQSLEWIGGINPNNGGTVYNQKFQGKVTLTVDKSTSTAYMELSSLRSEDTAVYYCARVRRGMDYWGQGTSVTVSS VL: DIQMTQSPSSLSASVGDRVTITCRASQDVTTAVAWYQQKPGKAPKLLIYSASYRYTGVPSRFSGSGSGTDFTLTISSVQPEDLATYYCQQHYSAPWTFGGGTNLEIKR			0.079		EC50 [5]: 1.33 nM; EC50 [7]: 0.532 nM
13E5 H2L2 (antibody, IgG4, V domains shown) VH: QVQLVQSGAEVVKPGASVKVSCKTSGYTFTEYTIHWVRQAPGQSLEWIGGINPNNGGTNYNQKFQGKVTLTVDKSTSTAYMELSSLRSEDTAVYYCARVRRGMDYWGQGTSVTVSS VL: DIQMTQSPSSLSASVGDRVTITCRASQDVTTAVAWYQQKPGKAPKLLIYSASSRYTGVPSRFSGSGSGTDFTLTISSVQPEDLATYYCQQHYSAPWTFGGGTNLEIKR			0.04	0.819	
20G10 H3L3 (antibody, IgG4, V domains shown) VH: QVTLKESGPTLVKPTQTLTLTCTFSGFSLSTSGMGVGWIRQPPGKALEWLALIWWADDKRYSTSLKSRLTISKDTSKNQVVLTITNVDPVDTATYYCARITRGNSAMDFWGQGTSVTVSS VL: DIQMTQSPSSLSASVGDRVTITCRASENVYSYLNWYQQKPGKAPKLLIYNAKSLQSGVPSRFSGSGSGTDFTLTISSLQPEDFATYYCQHHYGIPWTFGGGTKLEIKR					EC50 [7]: 0.742 nM

Further lines, with some results ahead:

EC50 [1] [nM]	EC50 [2] [nM]	EC50 [3] [nM]	EC50 [6] [nM]	Binder	also measured
0.446				18H7 H3L3 (antibody, IgG4, V domains shown) VH: EVQLVESGGGLVQPGGSLRLSCAASGFTFSSSYMSWVRQAPGKGLEYVSAINSNGGKTYYADSVKGRFTISRDNSKNTLYLQMSSLRAEDTAVYYCTRQRGNYVGAMDYWGQGTSVTVSS VL: DIQMTQSPSSLSASVGDRVTITCQASQDVSTALAWYQQKPGKAPKLLIYSASNLETGVPSRFSGSGSGTDFTFTISSLQPEDIATYYCHQYYGSPPTFGGGTKLEIKR	
0.1	2.33			18H7 H3L2 (antibody, IgG4, V domains shown) VH: EVQLVESGGGLVQPGGSLRLSCAASGFTFSSSYMSWVRQAPGKGLEYVSAINSNGGKTYYADSVKGRFTISRDNSKNTLYLQMSSLRAEDTAVYYCTRQRGNYVGAMDYWGQGTSVTVSS VL: DIQMTQSPSSLSASVGDRVTITCQASQDVSTAVVWYQQKPGKSPKLLIYSASYLYTGVPSRFSGSGSGTDFTFTISSLQPEDIATYYCHQYYGSPPTFGGGTKLEIKR	
0.067	3.03	0.066	0.943	dupilumab VAB 16F3-1 (antibody, V domains shown) VH: EVQLVESGGGLVQPGRSLRLSCEASGFTFDDYAMHWVRQAPGKGLEWVSGLSRTSVSIGYADSVKGRFTISRDNAKNSLYLEMNSLRPEDTALYYCAKWGTRGYFDYWGQGTLVTVSS VL: DIQMTQSPSSVSASVGDRVTITCRASQDISIWLAWYQQSPGKAPKLLINVASRLQSGVPSRFSGSGSGTDFTLTINSLQPEDFVTYYCQQANSFPITFGQGTRLATKR	EC50 [8]: 0.077 nM; EC50 [9]: 0.077 nM; OD450 [10]: 0.059; OD450 [11]: 0.147; EC50 [12]: 3.03 nM; EC50 [5]: 1.55 nM; EC50 [7]: 0.865 nM
